In patent US20210401805A1, “Immune CB1 Activation for Obesity Therapy” (University of South Carolina, priority 2020, published 2021):

Tests used:
[1] = system: 12-week HFD-fed DIO mice; experiment: Oral glucose tolerance test in DIO intervention study; type: in vivo; settings: AM251 10 mg/kg oral gavage, 21 consecutive days, WT and CB2−/− DIO mice
[2] = system: epididymal CD11b+F4/80+ ATMs and CD11c+ M1 ATMs; experiment: Flow cytometry of epididymal adipose tissue macrophages in DIO intervention study; type: in vivo, mice
[3] = system: epididymal ATMs and M1 ATMs of CB2−/− DIO mice; settings: AM251 10 mg/kg oral gavage, 21 consecutive days
[4] = system: DIO mice; settings: 4 weeks' treatment of DIO mice; cited from earlier work
[5] = AM251 10 mg/kg oral gavage, 21 consecutive days, WT DIO mice

For Cc1c(C(=O)NN2CCCCC2)nn(-c2ccc(Cl)cc2Cl)c1-c1ccc(I)cc1 [AM251], the glucose tolerance [1] was “did not alter”, the “ATMs per gram of adipose tissue” value [2, 5] was “greater” and the “M1 ATMs per gram of adipose tissue” value [2, 5] was “greater”. The “abundance of CD11c+ ATMs in visceral adipose tissue” value ([2]; AM251, 3-week treatment of DIO mice) was “persistent abundance”, the “ATMs per gram of adipose tissue greater after treatment” value [3] was “not” and the “M1 ATMs per gram of adipose tissue greater after treatment” value [3] was “not”. The adipose tissue inflammation [4] was “decreased”.
